Results published in patent publication US20110280849A1, “TUMOR SUPPRESSION USING HUMAN PLACENTA-DERIVED INTERMEDIATE NATURAL KILLER CELLS AND IMMUNOMODULATORY COMPOUNDS” (Anthrogenesis Corporation, priority 2010, published 2011).

System: colorectal carcinoma cell line HCT-116
Conditions: ex vivo cultured (day 19) PINK cells pre-treated 24 hours, then co-cultured with HCT-116; control untreated PINK cells 24.3%

Nc1cccc2c1C(=O)N(C1CCC(=O)NC1=O)C2=O (racemic) [pomalidomide, 4-amino-2-[(3RS)-2,6-dioxopiperidin-3-yl)-1H-isoindole-1,3(2H)-dione]
cytotoxicity of compound-treated NK cells: 47.4%
